Marks after values point to notes of the source that are not given here.
Tested on: BV2 microglial cells

N-(1H-benzo[d]imidazol-2-yl)nicotinamide [Compound 17]
Viability: 1000^d μM

Reference: article PMC4697443 (Bioorganic & medicinal chemistry, 2015)
